Compound activity deposited in PubChem by Broad Institute.
This is a sample that favours compounds with a hit; in the whole collection about 1.8% have one here.
Cneo AK release = Cryptococcus neoformans cell lysis inducers, primary screen, AK release luminescence, single concentration | lysis activity, % at 15 µM | C. neoformans lysis, adenylate kinase release luminescence, 4 h; normalised: neutral wells 0, clomiphene wells 100 | hit rate 0.2% among 360,000;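 active = mean lysis activity across replicates of at least 80%, whatever share of replicates individually reach that level; inactive = mean lysis activity below 80%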
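read-out = cell lysis signal | test system = log-phase Cryptococcus neoformans yeast cells | input = cells at 5 × 10^6 per mL | medium = fresh YPD growth medium | signal = luminescent adenylate kinase detection reagent | timing = 4 h at 37 °C static, read 1 h later | dosing = single dose | controls = Clomiphene as positive lysis control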
E-selectin induc = E-selectin induction in HUVECs, primary screen, imaging, HUVEC, immunofluorescence imaging, single point | hit rate 0.37% among 260,000 | activation, % at 7.58 µM | normalized: neutral wells 0, TNF-alpha wells 100;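 active = mean E-selectin-positive cell signal at least 10% of the positive control, reached in at least 60% of replicates, without over 20% cell loss; inconclusive = no rule given, readout overlaps actives, possibly toxicity-flagged; inactive = the rest, including those meeting only one limit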
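Test system: HUVEC; input: 3,000 HUVEC/well; measured by: immunofluorescence imaging; read-out: % PE-positive cells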
DENV2 CPE = inhibitors of DENV2 cytopathic effect, primary screen, cell-based, plate reader, single concentration; DENV2-infected cells, cytopathic effect rescue; CPE inhibition, % at 9.99 µM; hit rate 1.7% among 350,000; AID 651640, 2012; in the data active = CPE inhibition above about 20%, passing the limit was not always enough; inconclusive = no clear call, values can overlap the other calls; tested in BHK-21 cells;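 also: 0% = median of neutral control wells and 100% = median of positive control wells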
Yeast UUG start = modulators of start codon recognition fidelity in yeast; AID 602363; activity score, % at 18.7 µM; S. cerevisiae UUG-firefly luciferase reporter, luminescence/redox ratio; 0.13% of 350,000 active;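 active = replicate mean at a twofold rise or more, about +100% in these data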;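 note: firefly luciferase made from a UUG start codon reports start codon fidelity; reporter light over untreated wells divided by growth signal over untreated wells; some hits fall short of that in this replicate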
* = called active by the depositor; u = inconclusive; x = not tested or not shown.

Below each compound: Cneo AK release, E-selectin induc, DENV2 CPE, Yeast UUG start
CCCCNC(=O)c1nn2c(C(F)(F)F)cc(-c3ccccc3)nc2c1Br
→ -2, x, 38*, -15
CN1CCCC1CCNc1ccc2sc3ccccc3c(=O)c2c1 (centres undefined)
→ -2, 2, 27*, -5
CCC(=O)Nc1ccc2c(c1)C(=O)N(C)C[C@H](OC)[C@@H](C)CN(C(=O)CC1CC1)[C@@H](C)CO2
→ 0, 0, -1, -18
O=C(Cc1ccc(Cl)cc1)Nc1ccccc1Sc1ccccc1
→ 3, x, x, -21
O=C(CCl)Nc1ccccc1Sc1ccccc1
→ 2, x, x, 509*
C[C@@H]1CN([C@H](C)CO)C(=O)c2cccc(NS(C)(=O)=O)c2O[C@@H]1CN(C)CC1CC1
→ -7, -4, -10, 10
COc1ccccc1-c1cnc2c(c1)C(=O)N([C@H](C)CO)C[C@@H](C)[C@H](CN(C)Cc1cncnc1)O2
→ 82*, 0, u, 10
COc1cccc(-c2cnc3c(c2)C(=O)N([C@@H](C)CO)C[C@@H](C)[C@H](CN(C)Cc2ccccc2)O3)c1
→ 1, 0, 25, -5
COc1ccccc1-c1cnc2c(c1)C(=O)N([C@@H](C)CO)C[C@H](C)[C@H](CN(C)Cc1cccnc1)O2
→ 5, 0, 1, -9
COc1ccccc1-c1cnc2c(c1)C(=O)N([C@H](C)CO)C[C@@H](C)[C@H](CN(C)Cc1cccnc1)O2
→ -2, 0, 26*, -1
COc1cccc(-c2cnc3c(c2)C(=O)N([C@H](C)CO)C[C@@H](C)[C@H](CN(C)Cc2ccccc2)O3)c1
→ 1, 0, 27*, 4
COCCn1c(C)cc(C(=O)CSc2nc3ccccc3c(=O)n2Cc2ccco2)c1C
→ 1, x, 23*, -6
COCCn1c(C)cc(C(=O)CSc2cc(C)c3ccccc3n2)c1C
→ 3, x, x, -3
CNC[C@H]1OCCCC[C@H](C)Oc2ccc(NC(=O)Nc3ccccc3)cc2C(=O)N([C@@H](C)CO)C[C@@H]1C
→ -2, 0, 5, 18
CC(C)(C)OC(=O)C(Cc1ccc(OC(C)(C)C)cc1)NC(=O)CNC(=O)OCc1ccccc1 (centres undefined)
→ x, -1, 77*, x
CC(C)(C)OC(=O)NC(CC(=O)OCc1ccccc1)C(=O)O (centres undefined)
→ -3, x, 47*, -19
Cc1ccccc1S(=O)(=O)NCC[C@@H]1CC[C@@H](NC(=O)C2CCC2)[C@@H](CO)O1
→ 56, 1, 7, 1
COc1ccc2c3c([nH]c2c1)[C@H](CO)N(C(=O)NC(C)C)CC31CCN(C(=O)c2cccnc2)CC1
→ x, 0, 14, x
CCCN(CC1CCCO1)C(=O)c1cc(COc2cccc(OC)c2)on1 (centres undefined)
→ 0, x, -3, -10
COc1cccc(OCc2cc(C(=O)N(C)CCC3CCCCO3)no2)c1 (centres undefined)
→ 4, 0, 39*, -7
CC(=O)N[C@H]1CC[C@@H](CCNC(=O)C2CCCC2)O[C@H]1CO
→ 1, 0, 0, -12
CC1(C(=O)NCc2cccc(C(F)(F)F)c2)CCN1Cc1cc2ccccc2o1 (centres undefined)
→ 0, -1, 56*, 3
CC1(C(=O)NCc2cccc(C(F)(F)F)c2)CCN1Cc1ccc(-c2ccccc2)o1 (centres undefined)
→ 0, -2, 1, x
O=C(CSCc1ccc([N+](=O)[O-])cc1)Nc1ccc(S(=O)(=O)N2CCCCCC2)cc1
→ 2, -1, 80*, 19
Cc1ccc(NC(=O)CSCC(=O)Nc2ccc(S(=O)(=O)N3CCCC3)cc2)cc1
→ x, -1, -4, x
COCC#Cc1ccc2c(c1)O[C@H](CN(C)Cc1ccc(F)cc1)[C@@H](C)CN([C@@H](C)CO)S2(=O)=O
→ 3, 0, -6, 6
COC(=O)CN1C(=O)[C@H]2[C@@H](/C=C/c3ccccc3)N3C(=O)CN(Cc4ccccc4)C(=O)[C@@]3(C)[C@H]2C1=O
→ 0, 0, 50*, -8
COC(=O)c1cn(CCNC(=O)[C@H](Cc2ccccc2)NS(=O)(=O)c2ccc(C)cc2)nn1
→ 2, x, 3, x
COCC(=O)N1C[C@@H](C)[C@H](OC)CN(C)C(=O)c2ccc(NS(C)(=O)=O)cc2OC[C@H]1C
→ -2, 0, -1, x
COCC(=O)N1C[C@H](C)[C@@H](OC)CN(C)C(=O)c2ccc(NS(C)(=O)=O)cc2OC[C@@H]1C
→ 98*, 0, 4, x
COCC(=O)Nc1ccc2c(c1)OC[C@H](C)N(C(=O)CC1CC1)C[C@H](C)[C@H](OC)CN(C)C2=O
→ 0, 0, 31*, x
COCC(=O)Nc1ccc2c(c1)OC[C@H](C)N(C(=O)CC1CC1)C[C@@H](C)[C@@H](OC)CN(C)C2=O
→ 5, 0, -3, x
CCCC(=O)Nc1ccc2c(c1)OC[C@@H](C)N(C(=O)CN1CCOCC1)C[C@@H](C)[C@H](OC)CN(C)C2=O
→ -3, 0, 21*, 18
COCC(=O)Nc1ccc2c(c1)OC[C@@H](C)N(C(=O)COC)C[C@@H](C)[C@H](OC)CN(C)C2=O
→ 0, 0, 53*, -4
CCCNC(=O)N1[C@@H](CO)[C@@H](c2ccc(C3=CCCC3)cc2)[C@@H]1CNC(=O)CC
→ -1, 0, 5, -5
CO[C@@H]1CN(C)C(=O)c2ccc(NC(=O)NC(C)C)cc2OC[C@H](C)N(C(=O)CC2CC2)C[C@H]1C
→ -7, 0, 32*, x
CO[C@H]1CN(C)C(=O)c2ccc(NC(=O)NC(C)C)cc2OC[C@H](C)N(C(=O)CC2CC2)C[C@@H]1C
→ x, 0, -3, x
O=S(=O)(N[C@H]1CC[C@@H](CCn2cc(Cc3ccccc3)nn2)O[C@@H]1CO)c1ccccc1F
→ -3, 0, 0, x
Cc1noc(C)c1S(=O)(=O)Nc1ccc2c(c1)C(=O)N([C@H](C)CO)C[C@@H](C)[C@H](CN(C)S(=O)(=O)c1ccc(F)cc1)OCCCC[C@@H](C)O2
→ 5, 0, -7, -4
C[C@@H]1CN([C@@H](C)CO)C(=O)c2cc(NC(=O)C3CCCCC3)ccc2O[C@@H]1CN(C)Cc1ccc(Oc2ccccc2)cc1
→ x, -1, x, 2

Continued; it opens with the 4 that closed the last part.
Below each compound: Cneo AK release, E-selectin induc, DENV2 CPE, Yeast UUG start
CO[C@H]1CN(C)C(=O)c2ccc(NC(=O)NC(C)C)cc2OC[C@H](C)N(C(=O)CC2CC2)C[C@@H]1C
→ x, 0, -3, x
O=S(=O)(N[C@H]1CC[C@@H](CCn2cc(Cc3ccccc3)nn2)O[C@@H]1CO)c1ccccc1F
→ -3, 0, 0, x
Cc1noc(C)c1S(=O)(=O)Nc1ccc2c(c1)C(=O)N([C@H](C)CO)C[C@@H](C)[C@H](CN(C)S(=O)(=O)c1ccc(F)cc1)OCCCC[C@@H](C)O2
→ 5, 0, -7, -4
C[C@@H]1CN([C@@H](C)CO)C(=O)c2cc(NC(=O)C3CCCCC3)ccc2O[C@@H]1CN(C)Cc1ccc(Oc2ccccc2)cc1
→ x, -1, x, 2
COc1ccc(CN(C)C[C@H]2Oc3ccc(NC(=O)C4CCCCC4)cc3C(=O)N([C@@H](C)CO)C[C@@H]2C)cc1
→ 4, 0, -3, -2
C[C@@H]1CN([C@@H](C)CO)C(=O)c2cc(NC(=O)C3CC3)ccc2O[C@@H]1CN(C)Cc1ccc(Oc2ccccc2)cc1
→ 3, x, 79*, -3
COc1ccc(CN(C)C[C@@H]2Oc3ccc(NC(=O)C4CCCCC4)cc3C(=O)N([C@@H](C)CO)C[C@@H]2C)cc1
→ 56, 0, 38*, 14
C[C@@H]1CN([C@@H](C)CO)C(=O)c2cc(NC(=O)C3CC3)ccc2O[C@H]1CN(C)Cc1ccc(Oc2ccccc2)cc1
→ 2, x, 33*, 3
